Test results as given in patent US8673848 (Novartis, dated 2014).

The chains behind the UniProt entries cited, without tags or fusion partners. Where a name states a change or a piece, a line headed by the entry shows the natural chain unless it says otherwise.
UniProt P35414: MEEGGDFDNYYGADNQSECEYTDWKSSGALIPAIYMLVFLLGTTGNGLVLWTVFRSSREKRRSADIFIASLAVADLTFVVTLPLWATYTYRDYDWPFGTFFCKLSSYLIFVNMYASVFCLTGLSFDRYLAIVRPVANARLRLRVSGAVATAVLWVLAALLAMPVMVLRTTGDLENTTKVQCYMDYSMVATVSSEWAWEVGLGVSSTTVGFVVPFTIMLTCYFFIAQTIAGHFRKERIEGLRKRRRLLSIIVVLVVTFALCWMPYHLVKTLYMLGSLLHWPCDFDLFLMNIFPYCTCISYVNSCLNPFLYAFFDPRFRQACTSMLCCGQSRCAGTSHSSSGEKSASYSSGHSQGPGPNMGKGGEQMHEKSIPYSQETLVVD
UniProt Q9ULZ1: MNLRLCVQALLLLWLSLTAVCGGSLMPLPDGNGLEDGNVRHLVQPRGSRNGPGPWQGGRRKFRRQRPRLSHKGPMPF

Biological target: human APJ receptor (hAPJ) (human) (UniProt P35414)
Assay: cell-based or functional assay

hAPJ Ca2+ Flux EC50: 1.79 nM
Substance: Pyr1-apelin-13 (Comparative Example) (from UniProt Q9ULZ1 65-77) (peptide)
